From patent US10385089B2, “Thionucleoside derivative or salt thereof, and pharmaceutical composition” (FUJIFILM Corporation, priority 2014, dated 2019) come the findings set out here.

Molecules are shown by their SMILES.

In this experiment the test system is gemcitabine-resistant strain of pancreatic cancer cell line Capan-1 (ATCC Number: HTB-79). As to the kind of experiment: Gemcitabine-resistant cell growth inhibition test (CellTiter Glo, total cellular ATP). The note with it: Homo sapiens, CAPAN-1, 72 h, read-out: Growth inhibitory activity IC50 (μmol/L).

As to `C[C@H](NP(=O)(OC[C@H]1S[C@@H](n2ccc(N)nc2=O)[C@@H](F)[C@@H]1O)Oc1ccc(Cl)c(F)c1)C(=O)OCc1ccccc1` (mixture of isomers) [Example 6-1, (2S)-benzyl 2-(((RS)-(((2R,3S,4S,5R)-5-(4-amino-2-oxopyrimidin-1(2H)-yl)-4-fluoro-3-hydroxytetrahydrothiophen-2-yl)methoxy)(4-chloro-3-fluorophenoxy)phosphoryl)amino)propanoate], the IC50 was 5 to 15 µmol/L.
To `COC(=O)[C@H](C)NP(=O)(OC[C@H]1S[C@@H](n2ccc(N)nc2=O)[C@@H](F)[C@@H]1O)Oc1ccc(OC)cc1` (mixture of isomers) [Example 5-2-9, (2S)-methyl 2-(((RS)-(((2R,3S,4S,5R)-5-(4-amino-2-oxopyrimidin-1(2H)-yl)-4-fluoro-3-hydroxytetrahydrothiophen-2-yl)methoxy)(4-methoxyphenoxy)phosphoryl)amino)propanoate] belongs 5 to 15 µmol/L; to `CC(C)(C)C(=O)SCCOP(=O)(OC[C@H]1S[C@@H](n2ccc(N)nc2=O)[C@@H](F)[C@@H]1O)Oc1ccccc1` (mixture of isomers) [Example 14-1, S-(2-(((RS)-(((2R,3S,4S,5R)-5-(4-amino-2-oxopyrimidin-1(2H)-yl)-4-fluoro-3-hydroxytetrahydrothiophen-2-yl)methoxy)(phenoxy)phosphoryl)oxy)ethyl) 2,2-dimethylpropanethioate], 2 to 5 µmol/L; to `C[C@H](NP(=O)(OC[C@H]1S[C@@H](n2ccc(N)nc2=O)[C@@H](F)[C@@H]1O)Oc1ccc(Br)cc1)C(=O)OCc1ccccc1` (mixture of isomers) [Example 5-2-3, (2S)-benzyl 2-(((RS)-(((2R,3S,4S,5R)-5-(4-amino-2-oxopyrimidin-1(2H)-yl)-4-fluoro-3-hydroxytetrahydrothiophen-2-yl)methoxy)(4-bromophenoxy)phosphoryl)amino)propanoate], 5 to 15 µmol/L.
